Each structure is given as a SMILES string. The entries are a selection whose mix differs from that of the whole data set. Some results for these compounds are left out of this collection, so the calls shown say nothing about other tests. The source made the active and inactive calls. Cut-off read from the data, not from the text of the source: active = activation above about 27%; inactive = the rest.

Chains of the proteins cited; added tags and fusions are not shown.
UniProt P49146, whole entry: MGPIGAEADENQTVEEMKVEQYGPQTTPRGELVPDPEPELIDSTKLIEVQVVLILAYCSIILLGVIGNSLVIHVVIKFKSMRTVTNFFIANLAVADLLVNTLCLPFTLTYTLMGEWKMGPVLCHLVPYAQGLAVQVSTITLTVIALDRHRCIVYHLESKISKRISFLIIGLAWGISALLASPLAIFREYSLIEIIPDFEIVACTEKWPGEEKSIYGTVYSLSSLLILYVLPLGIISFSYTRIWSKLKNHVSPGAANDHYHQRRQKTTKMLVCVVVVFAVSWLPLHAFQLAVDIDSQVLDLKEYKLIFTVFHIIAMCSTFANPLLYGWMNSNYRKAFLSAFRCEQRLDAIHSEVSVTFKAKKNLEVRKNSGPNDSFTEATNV

This experiment concerns the target Neuropeptide Y receptor type 2 (Homo sapiens) (UniProt P49146). The experiment in a line: human Y2 receptor positive modulation or activation – cell-based, primary screen (AID 1359).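 Note: cells stimulated with NPY near EC25 plus isoproterenol at EC100; 0% = vehicle plus submaximal agonist and 100% = vehicle plus saturating agonist.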 Particulars: cells expressing NPY-Y2, potentiator/agonist read-out; at 3.6 µM; stronger effect = higher value.
With `O=C(NCC1(N2CCCCC2)CCCCC1)c1cc([N+](=O)[O-])ccc1Cl`, the activation was inactive: 9.02%.

As to `CC(C)N1C(=O)CC2(CCN(CCOC(=O)C(O)(c3ccccc3)c3ccccc3)CC2)C1=O`, the activation is inactive: 6.03%.

Regarding `CCN(CC)CC(C)C(C)OC(=O)C(O)(c1ccccc1)c1ccccc1` (stereo unspecified), the activation is inactive: -25.1%. The figure for `CN(C)C1CCCC1OC(=O)C(O)(c1ccccc1)c1ccccc1` (stereo unspecified) is inactive: -1.55%; for `Cc1ccccc1C(=O)NCC1(N2CCCCC2)CCCCC1` it is inactive: -2.25%; for `C=CCN1CCN(CCOC(=O)C(O)(c2ccccc2)c2ccccc2)CC1` it is inactive: -7.75%. Take `CCN1CCCC(OC(=O)C2(O)c3ccccc3C=Cc3ccccc32)C1` (stereo unspecified): the activation is inactive: 2.12%. For `COc1cccc(C(=O)NCC2(N3CCCCC3)CCCCC2)c1` the value was inactive: 5.66%; for `O=C(OC1CN2CCC1CC2)C(CO)(c1ccccc1)c1ccccc1` (stereo unspecified), inactive: 7.1%.

In the case of `COc1ccc(Br)c(C(=O)NCC2(N3CCCCC3)CCCCC2)c1`, the activation was inactive: -0.93%. The figure for `CN(C)c1cccc(C(=O)NCC2(N(C)C)CCCCC2)c1` is inactive: 1.85%.

The values are drawn from PubChem BioAssay AID1359 (The Scripps Research Institute Molecular Screening Center, 2008).
